In ChEMBL document CHEMBL3232704, “Discovery of mixed type thymidine phosphorylase inhibitors endowed with antiangiogenic properties: synthesis, pharmacological evaluation and molecular docking study of 2-thioxo-pyrazolo[1,5-a][1,3,5]triazin-4-ones. Part II” (Eur J Med Chem, 2014):

Assays:
[1] = biological target: T1, Thymidine phosphorylase (Homo sapiens) (UniProt P19971); assay: Inhibition of thymidine phosphorylase-mediated MMP-9 expression in human MDA-MB-231 cells at 100 uM by densitometric analysis; format: cell-based
T1 sequence (whole entry): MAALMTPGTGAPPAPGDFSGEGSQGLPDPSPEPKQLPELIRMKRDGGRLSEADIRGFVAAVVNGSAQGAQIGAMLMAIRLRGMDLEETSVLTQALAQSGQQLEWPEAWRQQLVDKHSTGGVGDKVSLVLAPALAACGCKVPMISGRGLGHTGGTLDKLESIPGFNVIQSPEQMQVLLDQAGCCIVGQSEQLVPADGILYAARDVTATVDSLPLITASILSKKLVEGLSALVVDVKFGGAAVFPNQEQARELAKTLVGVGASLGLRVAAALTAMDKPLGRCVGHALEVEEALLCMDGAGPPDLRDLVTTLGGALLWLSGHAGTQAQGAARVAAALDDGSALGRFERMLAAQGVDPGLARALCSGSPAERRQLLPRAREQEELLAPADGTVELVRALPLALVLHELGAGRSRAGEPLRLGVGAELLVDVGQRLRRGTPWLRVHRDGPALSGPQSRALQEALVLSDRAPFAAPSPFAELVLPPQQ

[2] = biological target: T1, Thymidine phosphorylase (Homo sapiens); assay: Inhibition of thymidine phosphorylase-mediated VEGF expression in human MDA-MB-231 cells at 100 uM by ELISA; format: cell-based

With O=c1[nH]c(=O)c2cc[nH]c2[nH]1 [7-DEAZAXANTHINE] the inhibition [1] was “inactive” and the inhibition [2] was “inactive”.

Active and inactive are the calls of the source. No cut-off for these calls is given here.
